Laboratory results as given in US7871982B2, “Lincomycin derivatives and antimicrobial agents comprising the same as active ingredient” (Meiji Seika Kaisha, Ltd., priority 2005, dated 2011).

How the values were obtained:
Assay in all cases: Antimicrobial activity, MIC against pneumococci (agar dilution)
Format in all cases: cell-based
S. pneumoniae 225 = conditions: Streptococcus pneumoniae, 225, read-out: minimal inhibitory concentration (MIC)
Method: (§1) For representative compounds among lincomycin derivatives according to the present invention, the minimal inhibitory concentration (MIC, μg/ml) against various pneumococci was measured according to the method described in CHEMOTHERAPY, vol. 16, No. 1, 99, 1968. Sensitivity disk agar-N+5% horse blood was used as the medium for the measurement. The amount of bacteria inoculated was 10^6 CFU/ml. In Table 1, CLDM represents clindamycin.

S. pneumoniae TH-96 = conditions: Streptococcus pneumoniae, TH96, read-out: minimal inhibitory concentration (MIC)
Method: as §1

S. pneumoniae 1820 = conditions: Streptococcus pneumoniae, 1820, read-out: minimal inhibitory concentration (MIC)
Method: as §1

S. pneumoniae DPI Type[…] = conditions: Streptococcus pneumoniae, read-out: minimal inhibitory concentration (MIC)
Method: as §1

S. pneumoniae IP692 = conditions: Streptococcus pneumoniae, IP692, read-out: minimal inhibitory concentration (MIC)
Method: as §1

S. pneumoniae PRC0-91 = conditions: Streptococcus pneumoniae, PRC091, read-out: minimal inhibitory concentration (MIC)
Method: as §1

S. pneumoniae TH-662 = conditions: Streptococcus pneumoniae, TH662, read-out: minimal inhibitory concentration (MIC)
Method: as §1

S. pneumoniae PRC-53 = conditions: Streptococcus pneumoniae, PRC53, read-out: minimal inhibitory concentration (MIC)
Method: as §1

S. pneumoniae PRC-206 = conditions: Streptococcus pneumoniae, PRC206, read-out: minimal inhibitory concentration (MIC)
Method: as §1

S. pneumoniae 1913 = conditions: Streptococcus pneumoniae, 1913, read-out: minimal inhibitory concentration (MIC)
Method: as §1

For `CCC[C@@H]1C[C@@H](C(=O)N[C@@H]([C@H]2O[C@H](SC)[C@H](O)[C@@H](O)[C@H]2O)[C@H](C)Cl)N(C)C1` [CLDM, clindamycin, reference compound], the MIC (S. pneumoniae 225) was 256 µg/mL (≈ 602 µM), the MIC (S. pneumoniae TH-96) was 0.13 µg/mL (≈ 0.306 µM) and the MIC (S. pneumoniae 1820) was 256 µg/mL (≈ 602 µM). It also gave an MIC (S. pneumoniae DPI Type[…]) of 0.13 µg/mL (≈ 0.306 µM), an MIC (S. pneumoniae IP692) of 0.13 µg/mL (≈ 0.306 µM) and an MIC (S. pneumoniae PRC0-91) of 256 µg/mL (≈ 602 µM). For the same compound, the MIC (S. pneumoniae TH-662) was 256 µg/mL (≈ 602 µM), the MIC (S. pneumoniae PRC-53) was 0.13 µg/mL (≈ 0.306 µM) and the MIC (S. pneumoniae PRC-206) was 256 µg/mL (≈ 602 µM). It also gave an MIC (S. pneumoniae 1913) of 256 µg/mL (≈ 602 µM).

Converted amounts (≈) assume the structure as drawn.
